# Antibody variant affinities, Ab-14 light chain, assay 1

Values reported by Engelhart et al. 2022, doi:10.1038/s41597-022-01779-4 (FLAb copy).

The target is the same throughout: PDVDLGDISGINAS, from the HR2 region of SARS-CoV-2 spike.

The variants keep the heavy chain, the linker and the frameworks of Ab-14 (scFv order VH, three GGGGS repeats, VL).
VH: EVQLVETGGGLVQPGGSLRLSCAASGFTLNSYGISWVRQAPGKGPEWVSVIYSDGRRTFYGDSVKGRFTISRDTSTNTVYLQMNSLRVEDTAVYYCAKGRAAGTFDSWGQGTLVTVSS
VL: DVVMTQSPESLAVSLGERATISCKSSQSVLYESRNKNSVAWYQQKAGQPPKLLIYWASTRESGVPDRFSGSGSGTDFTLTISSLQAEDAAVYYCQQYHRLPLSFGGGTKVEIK

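Phage display of a naive human antibody library on the peptide gave the parent. Library AAYL50 holds single substitutions and randomly drawn double and triple substitutions in the CDRs. AlphaSeq pools MATa yeast showing the antibodies with MATalpha yeast showing the peptide. The frequency of each diploid, read from paired DNA barcodes, reflects how well the two displayed proteins bind. The ratio of observed to expected reads was calibrated, replicate by replicate, on BCL2-family standards whose Kd was known from biolayer interferometry. There are three technical replicates.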

Positions count from residue 1 of the parent VL; Y31N puts N in place of Y. Scale: log10 of Kd in nM, estimated from mating counts; low values are strong binders. Replicates are averaged; those with no signal do not enter the mean. "nd" means that the variant was in the library but no mating with the target was seen in that replicate; the authors take this as a sign of poor binding, and no number exists.

{"changes": "Y31N/P101C/L102V", "log10 Kd (nM) by replicate": "nd nd nd", "mean, log10 nM": "nd", "signal with controls": "1/9 (3.35)"}
{"changes": "S33H/S62D/L102T", "log10 Kd (nM) by replicate": "nd 3.55 nd", "mean, log10 nM": "3.55", "signal with controls": "0/9"}
{"changes": "Q27G/E32K/T59V", "log10 Kd (nM) by replicate": "2.01 2.15 2.06", "mean, log10 nM": "2.07", "signal with controls": "3/9 (4.09)"}
{"changes": "S25L/S26D/Y31H", "log10 Kd (nM) by replicate": "-0.13 0.22 0.08", "mean, log10 nM": "0.06", "signal with controls": "5/9 (4.45)"}
{"changes": "Q27M/R34A/A40Q", "log10 Kd (nM) by replicate": "nd nd nd", "mean, log10 nM": "nd", "signal with controls": "1/9 (2.90)"}
{"changes": "V39H/Y97P/L100K", "log10 Kd (nM) by replicate": "nd nd nd", "mean, log10 nM": "nd", "signal with controls": "0/9"}
{"changes": "R34L/K36Y/S62R", "log10 Kd (nM) by replicate": "2.41 2.23 2.22", "mean, log10 nM": "2.28", "signal with controls": "4/9 (4.36)"}
{"changes": "Y97T/R99I/L102Y", "log10 Kd (nM) by replicate": "nd nd 5.17", "mean, log10 nM": "5.17", "signal with controls": "0/9"}
{"changes": "Y31H/Q96M/S103H", "log10 Kd (nM) by replicate": "0.96 0.98 0.74", "mean, log10 nM": "0.89", "signal with controls": "2/9 (4.90)"}
{"changes": "K24W/Q27C/Y97L", "log10 Kd (nM) by replicate": "2.77 3.71 4.10", "mean, log10 nM": "3.53", "signal with controls": "1/9 (2.93)"}
{"changes": "K24Q/R60H/S103D", "log10 Kd (nM) by replicate": "nd 3.88 nd", "mean, log10 nM": "3.88", "signal with controls": "1/9 (2.79)"}
{"changes": "R60Q/Y97M", "log10 Kd (nM) by replicate": "2.67 2.72 3.18", "mean, log10 nM": "2.85", "signal with controls": "0/9"}
{"changes": "A57C/S62F/H98A", "log10 Kd (nM) by replicate": "3.78 2.46 3.01", "mean, log10 nM": "3.08", "signal with controls": "1/9 (4.45)"}
{"changes": "S25L/V29C/E32G", "log10 Kd (nM) by replicate": "-0.03 0.31 0.10", "mean, log10 nM": "0.13", "signal with controls": "3/9 (5.44)"}
{"changes": "S25L/Q27N/R34C", "log10 Kd (nM) by replicate": "1.06 1.18 1.13", "mean, log10 nM": "1.12", "signal with controls": "4/9 (4.40)"}
{"changes": "L30D/N35T/S62L", "log10 Kd (nM) by replicate": "nd nd nd", "mean, log10 nM": "nd", "signal with controls": "1/9 (4.37)"}
{"changes": "K36E/A57V/E61P", "log10 Kd (nM) by replicate": "2.57 1.97 2.29", "mean, log10 nM": "2.28", "signal with controls": "2/9 (3.70)"}
{"changes": "L30R/E61T/L100Y", "log10 Kd (nM) by replicate": "2.09 2.23 2.62", "mean, log10 nM": "2.31", "signal with controls": "6/9 (4.09)"}
{"changes": "S28E/V39W/Y97F", "log10 Kd (nM) by replicate": "3.94 nd 3.95", "mean, log10 nM": "3.94", "signal with controls": "0/9"}
{"changes": "K36H/N37L/S62I", "log10 Kd (nM) by replicate": "2.72 3.07 nd", "mean, log10 nM": "2.89", "signal with controls": "1/9 (4.29)"}
{"changes": "S25I/Y97W/H98K", "log10 Kd (nM) by replicate": "5.36 3.33 3.68", "mean, log10 nM": "4.12", "signal with controls": "3/9 (3.86)"}
{"changes": "R34P/N37E/V39D", "log10 Kd (nM) by replicate": "nd nd nd", "mean, log10 nM": "nd", "signal with controls": "0/9"}
{"changes": "Q27D/Y31R/Y97P", "log10 Kd (nM) by replicate": "3.56 3.36 3.77", "mean, log10 nM": "3.56", "signal with controls": "0/9"}
{"changes": "S33D/Q96W", "log10 Kd (nM) by replicate": "0.67 0.87 1.01", "mean, log10 nM": "0.85", "signal with controls": "3/9 (4.14)"}

4 of these entries, quoted again:

changes,log10 Kd (nM) by replicate,"mean, log10 nM",signal with controls
S25I/Y97W/H98K,5.36 3.33 3.68,4.12,3/9 (3.86)
Q27G/E32K/T59V,2.01 2.15 2.06,2.07,3/9 (4.09)
Y31H/Q96M/S103H,0.96 0.98 0.74,0.89,2/9 (4.90)
S28E/V39W/Y97F,3.94 nd 3.95,3.94,0/9

For reference, the parent read 0.65 as the reference entry and 1.68 as a member of this library. Background: pairings of library AAYL50 with three empty control strains gave a value in 18% of cases (median 4.19, 5th percentile 2.99). Values in that range, when seen in few replicates, are hard to tell from nonspecific mating. The control count says in how many pairings with the empty strains this scFv gave a signal, with their mean in brackets.